# Membrane permeability of cyclic peptides

Collected by the curators of CycPeptMPDB (Li et al. 2023) from Furukawa et al. 2016, doi:10.1021/acs.jmedchem.6b01246.

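Lipid, pH, incubation time, direction and concentration are not recorded in the data file. Other peptides of the study may be missing here. Peptides that the database sets to -10, its floor, are left out.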

PAMPA is the parallel artificial membrane permeability assay, which has no cells and reads passive diffusion.
Values are log10 P with P in cm/s, so -5 is more permeable than -7.

PAMPA (log10 cm/s)	compound
-6.44	CCCC[C@@H]1NC(=O)[C@H](CC(C)C)N(C)C(=O)CN(CCCN2CCCC2=O)C(=O)[C@H](C)NC(=O)CN(Cc2ccc(Cl)cc2)C(=O)[C@H]2CCCN2C1=O
-6.00	CCCC[C@@H]1NC(=O)[C@H](CC(C)C)N(C)C(=O)CN(CCCc2ccccc2)C(=O)[C@H](C)NC(=O)CN(Cc2ccc(Cl)cc2)C(=O)[C@H]2CCCN2C1=O
-5.38	CCCC[C@@H]1NC(=O)[C@H](CC(C)C)N(C)C(=O)CN(CCCc2ccccc2)C(=O)[C@H](Cc2ccccc2)NC(=O)CN(CC)C(=O)[C@H]2CCCN2C1=O
-5.87	CCCC[C@@H]1NC(=O)[C@H](CC(C)C)N(C)C(=O)CN(CCc2cccnc2)C(=O)[C@H](Cc2ccccc2)NC(=O)CN(CC)C(=O)[C@H]2CCCN2C1=O
-5.17	CCCC[C@@H]1NC(=O)[C@H](CC(C)C)N(C)C(=O)CN(CCOC)C(=O)[C@H](Cc2ccc3ccccc3c2)NC(=O)CN(CC)C(=O)[C@H]2CCCN2C1=O
-5.84	CCCC[C@@H]1NC(=O)[C@H](CC(C)C)N(C)C(=O)CN(CC2CCOCC2)C(=O)[C@H](Cc2ccc3ccccc3c2)NC(=O)CN(CCN2CCOCC2)C(=O)[C@H]2CCCN2C1=O
-5.60	CCCCCN1CC(=O)N(C)[C@@H](CC(C)C)C(=O)N[C@@H](CCCC)C(=O)N2CCC[C@@H]2C(=O)N(CCCCc2ccccc2)CC(=O)N[C@@H](C)C1=O
-5.05	CCCC[C@@H]1NC(=O)[C@H](CC(C)C)N(C)C(=O)CN(CCOC)C(=O)[C@H](CC(C)C)NC(=O)CN(CCCOC(C)C)C(=O)[C@H]2CCCN2C1=O
-6.42	CCCCCN1CC(=O)N(C)[C@@H](CC(C)C)C(=O)N[C@@H](CCCC)C(=O)N2CCC[C@@H]2C(=O)N(CCN2CCOCC2)CC(=O)N[C@@H](C)C1=O
-5.45	CCCC[C@@H]1NC(=O)[C@H](CC(C)C)N(C)C(=O)CN(Cc2ccccc2)C(=O)[C@H](C)NC(=O)CN(CC)C(=O)[C@H]2CCCN2C1=O
-6.12	CCCC[C@@H]1NC(=O)[C@H](CC(C)C)N(C)C(=O)CN(CCc2cccnc2)C(=O)[C@H](Cc2ccccc2)NC(=O)CN(Cc2ccc(Cl)cc2)C(=O)[C@H]2CCCN2C1=O
-6.57	CCCC[C@@H]1NC(=O)[C@H](CC(C)C)N(C)C(=O)CN(CCCc2ccccc2)C(=O)[C@H](Cc2ccccc2)NC(=O)CN(CC(C)C)C(=O)[C@H]2CCCN2C1=O
-7.20	CCCCCN1CC(=O)N(C)[C@@H](CC(C)C)C(=O)N[C@@H](CCCC)C(=O)N2CCC[C@@H]2C(=O)N(CCC)CC(=O)N[C@@H](Cc2ccc3ccccc3c2)C1=O
-6.14	CCCC[C@@H]1NC(=O)[C@H](CC(C)C)N(C)C(=O)CN(CCc2cccnc2)C(=O)[C@H](CC(C)C)NC(=O)CN(CC)C(=O)[C@H]2CCCN2C1=O
-6.22	CCCC[C@@H]1NC(=O)[C@H](CC(C)C)N(C)C(=O)CN(CCCN2CCCC2=O)C(=O)[C@H](C)NC(=O)CN(CCCCc2ccccc2)C(=O)[C@H]2CCCN2C1=O

A selection of 2 entries from above:

compound	PAMPA (log10 cm/s)
CCCC[C@@H]1NC(=O)[C@H](CC(C)C)N(C)C(=O)CN(CCCc2ccccc2)C(=O)[C@H](Cc2ccccc2)NC(=O)CN(CC(C)C)C(=O)[C@H]2CCCN2C1=O	-6.57
CCCCCN1CC(=O)N(C)[C@@H](CC(C)C)C(=O)N[C@@H](CCCC)C(=O)N2CCC[C@@H]2C(=O)N(CCC)CC(=O)N[C@@H](Cc2ccc3ccccc3c2)C1=O	-7.20